Laboratory results as given in patent US4880938A, “Amino acid analogs” (priority 1986, dated 1989).

Sequences of proteins named here, by UniProt entry; tags and fusion partners are left off.
UniProt P30551, whole entry: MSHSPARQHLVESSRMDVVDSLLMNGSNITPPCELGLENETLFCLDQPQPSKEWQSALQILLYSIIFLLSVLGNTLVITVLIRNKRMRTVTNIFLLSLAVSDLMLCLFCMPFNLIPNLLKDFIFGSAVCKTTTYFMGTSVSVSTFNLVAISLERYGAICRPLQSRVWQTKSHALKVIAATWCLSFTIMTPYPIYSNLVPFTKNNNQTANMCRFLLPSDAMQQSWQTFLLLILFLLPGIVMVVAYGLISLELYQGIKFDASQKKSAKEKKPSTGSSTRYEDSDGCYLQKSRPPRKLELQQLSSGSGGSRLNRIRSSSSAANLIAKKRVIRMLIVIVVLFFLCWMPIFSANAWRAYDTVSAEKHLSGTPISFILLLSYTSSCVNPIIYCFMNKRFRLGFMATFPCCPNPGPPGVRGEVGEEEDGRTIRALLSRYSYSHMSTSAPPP

Molecular target: T1, CCK receptor (pancreas) (Rattus norvegicus, UniProt P30551)
T1 construct: The whole pancreas of a male Sprague-Dawley rat (200-350 g); from tissue; host or cells: whole pancreas of male Sprague-Dawley rat, membrane homogenate
Assay: 125I-CCK-33 receptor binding (pancreas) method
Design: species or system rat (male Sprague-Dawley)
Details: 125I-CCK-33, rat pancreas membranes, 37° C., 30 minutes
Description: Screening of the novel compounds according to the present invention to determine biological activity and obtain an IC50 value for them, in order to identify significant CCK-antagonism, may be accomplished using an ^125 I-CCK receptor binding assay and in vitro isolated tissue preparations. […] These tests involve the following:
CCK receptor binding (pancreas) method
CCK-33 was radiolabeled with ^125 I-Bolton Hunter reagent (2000 Ci/mmole), as described by Sankara et al. (J. Biol. Chem., 254, 9349-9351, 1979).
The whole pancreas of a male Sprague-Dawley rat (200-350 g), which had been sacrificed by decapitation, was dissected free of fat tissue and homogenized in 20 volumes of ice-cold 50 mM Tris HCl (pH 7.7 at 25° C.) with a Brinkmann Polytron PT-10. The homogenates were centrifuged at 48,000 g for 10 minutes, then the resulting pellets were resuspended in Tris Buffer, centrifuged as above, and resuspended in 200 volumes of binding assay buffer (50 mM Tris HCl, pH 7.7 at 25° C., 5 mM dithiothreitol, 0.1 mM bacitracin, 1.2 mM phenylmethane sulfonyl fluoride and 0.5 mM o-phenanthroline).
The supernatant was aspirated and discarded, and the pellets were counted with a Beckman Gamma 5000.

| SMILES | IC50 [nM] |
| --- | --- |
| CCCN(CCC)C(=O)[C@H](CCC(=O)O)NC(=O)c1cc2ccccc2[nH]1 [Compound 3, (S)-5-(dipropylamino)-4-[(1H-indol-2-yl-carbonyl)amino]-5-oxo-pentanoic acid] | 3700 |
| CCCN(CCC)C(=O)[C@@H](CCC(=O)O)NC(=O)c1cc2ccccc2[nH]1 [Compound 4] | 1100 |
